Target: Beta-lactamase (Pseudomonas aeruginosa (strain ATCC 15692 / PAO1 / 1C / PRS 101 / LMG12228), UniProt P24735)
Assay: Inhibition of Pseudomonas aeruginosa 18SH Beta-lactamase.

Protein sequences, listed by entry. Tags and fused reporters are not part of them. Lines headed by an entry give the natural chain unless they say otherwise; changes in a name come on top.
UniProt P24735: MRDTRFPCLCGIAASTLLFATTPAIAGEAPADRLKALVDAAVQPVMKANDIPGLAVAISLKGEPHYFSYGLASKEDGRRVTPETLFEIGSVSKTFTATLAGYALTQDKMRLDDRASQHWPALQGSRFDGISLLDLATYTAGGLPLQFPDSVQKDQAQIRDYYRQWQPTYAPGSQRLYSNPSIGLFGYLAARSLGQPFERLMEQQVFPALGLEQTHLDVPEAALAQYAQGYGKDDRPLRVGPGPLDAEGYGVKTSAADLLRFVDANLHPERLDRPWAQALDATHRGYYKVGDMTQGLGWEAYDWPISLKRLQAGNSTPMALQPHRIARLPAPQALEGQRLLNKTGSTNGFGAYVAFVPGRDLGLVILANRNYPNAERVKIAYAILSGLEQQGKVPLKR

Q: Which IC50 does the source give for `O=C(Nc1ccccc1)N1CC[C@@H]2[C@H]1C(=O)N2S(=O)(=O)[O-].[Na+]` here?
A: 420 nM
